By UniProt entry, the sequences of proteins in these tests, tags left out.
UniProt P25103, whole entry: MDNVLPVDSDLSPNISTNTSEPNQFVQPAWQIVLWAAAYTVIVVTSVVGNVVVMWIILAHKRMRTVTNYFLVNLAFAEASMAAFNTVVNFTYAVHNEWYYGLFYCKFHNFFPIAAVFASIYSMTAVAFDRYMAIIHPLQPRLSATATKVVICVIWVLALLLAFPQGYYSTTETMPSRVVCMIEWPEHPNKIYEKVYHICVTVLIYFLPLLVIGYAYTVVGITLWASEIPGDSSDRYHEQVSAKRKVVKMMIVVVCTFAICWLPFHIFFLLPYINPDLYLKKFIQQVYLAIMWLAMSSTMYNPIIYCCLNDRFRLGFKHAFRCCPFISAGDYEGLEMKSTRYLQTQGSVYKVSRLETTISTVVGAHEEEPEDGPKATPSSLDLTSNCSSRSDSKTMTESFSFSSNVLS

According to ChEMBL document CHEMBL1125478, “The discovery of (2S,3S)-cis-2-(diphenylmethyl)-N-[(2-methoxyphenyl)methyl]-1- azabicyclo[2.2.2]-octan-3-amine as a novel, nonpeptide substance P antagonisst” (J Med Chem, 1992):

Target: Substance-P receptor (Homo sapiens, UniProt P25103)
Assay: Binding affinity towards Tachykinin receptor 1 in human IM-9 cells using [3H]-substance P as ligand
Format: cell-based
Summary of the method: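 Displacement of [³H]SP (0.5 nM final) from human IM-9 cell preparation in 50 mM TRIS-HCl pH 7.7 with MnCl2, BSA, bacitracin, leupeptin, […], phosphoramidon; 20 min, room temperature, dark. Filtration on polyethylenimine-soaked GF/B filters, scintillation counting. IC50 from six-point curves, duplicates; mean ± SEM of three experiments.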

SMILES	pIC50
Clc1ccccc1CN[C@H]1C2CCN(CC2)[C@H]1C(c1ccccc1)c1ccccc1	7.48
Clc1cccc(CN[C@H]2C3CCN(CC3)[C@H]2C(c2ccccc2)c2ccccc2)c1	4.55

pIC50: −log10 of the molar value.
